Experimental data reported in PubChem BioAssay AID2107 (National Center for Advancing Translational Sciences (NCATS), 2009).
The list shows a part of the results, in another mix than the full data. Activity calls are given as the source filed them. Calls follow the shape of the dose curve; as a rule, active = well fitted inhibition curve with a large enough effect; inconclusive = small, poorly fitted or top-dose-only effect, or effect the other way; inactive = flat fitted curve, though single readings scatter.

The chains behind the UniProt entries cited, without tags or fusion partners. Residues count along the entry.
UniProt P06280, 32-429 limits assumed: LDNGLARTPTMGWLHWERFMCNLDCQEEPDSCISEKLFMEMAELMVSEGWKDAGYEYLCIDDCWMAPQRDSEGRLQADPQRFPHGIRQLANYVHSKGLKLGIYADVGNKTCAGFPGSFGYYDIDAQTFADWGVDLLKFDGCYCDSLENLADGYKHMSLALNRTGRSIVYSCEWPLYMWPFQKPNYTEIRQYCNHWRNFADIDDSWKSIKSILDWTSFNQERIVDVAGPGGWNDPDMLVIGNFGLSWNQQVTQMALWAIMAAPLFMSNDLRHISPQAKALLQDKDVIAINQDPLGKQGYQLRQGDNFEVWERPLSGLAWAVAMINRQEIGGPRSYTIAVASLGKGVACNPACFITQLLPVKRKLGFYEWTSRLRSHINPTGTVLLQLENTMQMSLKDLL

What follows are compounds tested against Alpha-galactosidase A (Homo sapiens) (UniProt P06280) (assay: qHTS Assay for Inhibitors and Activators of Human alpha-Galactosidase From Spleen Homogenate). Details: 4MU-alpha-Gal fluorescence, 40 min; at 80 µM (top of the series) unless noted.
Source text: NIH Chemical Genomics Center [NCGC] NIH Molecular Libraries Probe Production Centers Network [MLPCN] MLPCN Grant: R03 MH084842-01 Assay Submitter (PI): Wei Zheng NCGC Assay Overview: Alpha-galactosidase is a homodimeric glycoprotein that hydrolyzes the terminal alpha-galactosyl moieties from glycolipids and glycoproteins. Deficiency of this enzyme results in Fabry Disease with progressive accumulation of globotriaosylceramide and other glycosphingolipids in vascular endothelial cells that causes renal failure, myocardial infarction and stroke, and premature death in patients. It has been reported that the improper folding and trafficking of alpha-galactosidase resulting from genetic mutations may account for a significant number of Fabry patients. […] We optimized this alpha-galactosidase assay in 1536-well plate format for identification of novel small molecule inhibitors or activators with structures other than the sugar analogs in order to develop new pharmacological chaperones. In particular, this assay is directed towards discovering compounds active in more natural setting, tissue homogenate, that may have been missed by screens of the purified enzyme under more stringent conditions.
NCGC Assay Protocol Summary: This is a fluorogenic enzyme assay with 4-methylumbelliferyl-alpha-D-galactopyranoside as the substrate and human spleen homogenate containing alpha-galactosidase as the enzyme preparation. Upon hydrolysis of this fluorogenic substrate, the resulting product, 4-methylumbelliferone (which excites at 365 nm and emits at 440 nm) can be detected by a fluorescence plate reader. Data were normalized to the controls for basal activity (without enzyme) and 100% activity (with enzyme). The AC50 values were determined from concentration-response data modeled with the standard Hill equation. Assay buffer: 50 mM citric acid (titrated with potassium phosphate to pH 5.0), 0.01% Tween-20 (pH 5.0 is an optimal condition for this enzyme assay) 1536-well assay protocol for the alpha-galactosidase from human spleen homogenate: (1) Add 2 ul/well spleen homogenate (1 ug) (2) Add 23 nL compounds in DMSO solution. The final titration was 0.5 nM to 58 uM. (3) Add 2 ul of substrate (1 mM final) (4) Incubate at 37C for 40 min (5) Add 2 ul stop solution (1M NaOH and 1M Glycine mixture, pH 10) (6) Detect the assay plate in a ViewLux plate reader (PerkinElmer) with Ex=365 nm and Em=440nm. Keywords: Alpha-galactosidase, Fabry Disease, pharmacological chaperone, chaperone therapy, high throughput screening, alpha- galactosidase inhibitor, MLSMR, MLSCN, NIH Roadmap, qHTS and NCGC
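Also: 0% = enzyme with vehicle and -100% = no enzyme basal signal.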

SMILES | activity change, negative = inhibition
Cc1ccc(C)c(NP(C)(=O)Oc2ccccc2)c1 (centres undefined) | inactive: 0.744%
CP(=O)(Nc1cccc(Br)c1)Oc1ccccc1 (centres undefined) | inactive: 9.37%
Cc1cc(C)cc(OP(C)(=O)Nc2ccccn2)c1 (centres undefined) | inactive: 6.15%
CCOC(=O)c1ccc(NP(C)(=O)Oc2cc(C)cc(C)c2)cc1 (centres undefined) | inactive: -6.31%
Cc1cc(C)cc(OP(C)(=O)Nc2ccc(C)cc2C)c1 (centres undefined) | inactive: -3.62%
COc1ccccc1OP(C)(=O)Nc1cccc(Br)c1 (centres undefined) | inactive: 3.72%
CC1=NCCc2c1[nH]c1ccccc21.O=[N+]([O-])c1cc([N+](=O)[O-])c(O)c([N+](=O)[O-])c1 | inactive: -5.88%
O=[N+]([O-])OCC(CO[N+](=O)[O-])(CO[N+](=O)[O-])CO[N+](=O)[O-] | inactive: 10.2%
Cc1ccc([N+](=O)[O-])cc1[N+](=O)[O-] | inactive: -0.672%
O=[N+]([O-])c1cccc([N+](=O)[O-])c1 | inactive: 5.34%
CP(=O)(Nc1ccc(SC(F)(F)F)cc1)Oc1ccccc1 (centres undefined) | inactive: 1.86%
CCCOc1ccc(NP(C)(=O)Oc2ccc(Cl)cc2)cc1 (centres undefined) | inactive: -7.61%
CN1CCCCC1COC(=O)C1(O)c2ccccc2CCc2ccccc21 (centres undefined) | inactive: 8.69%
COc1ccccc1OP(C)(=O)Nc1c(C)cccc1C (centres undefined) | inactive: -2.14%
O=[N+]([O-])c1cc([N+](=O)[O-])c(Nc2nnnn2CCO)c([N+](=O)[O-])c1 | inactive: -7%
Cc1nc2ccc3ccccc3c2s1.O=[N+]([O-])c1cc([N+](=O)[O-])c(O)c([N+](=O)[O-])c1 | inactive: 4.58%
CC(C)N(CCCl)C(C)C | inactive: -4.79%
O=[N+]([O-])c1cc([N+](=O)[O-])c(-n2nnc3ccccc32)c([N+](=O)[O-])c1 | inactive: 3.96%
CP(=O)(Nc1ccccn1)Oc1ccc(Cl)cc1 (centres undefined) | inactive: -2.36%
CCOC(=O)c1ccc(NP(C)(=O)Oc2ccc(OC)cc2)cc1 (centres undefined) | inactive: -4.27%
CCOP(C)(=S)SCC(=O)NC(C)C(=O)O (centres undefined) | inactive: 21.4%
CCc1ccc(OP(C)(=O)N2CCN(c3ccc([N+](=O)[O-])cc3)CC2)cc1 (centres undefined) | inactive: 3%
CP(=O)(NC(=O)Nc1ccccc1)Oc1ccccc1 (centres undefined) | inactive: 5.94%
Cc1cc(C)cc(OP(C)(=O)Nc2ccc(SC(F)(F)F)cc2)c1 (centres undefined) | inactive: 0.947%

SMILES | activity change, negative = inhibition
CP(=O)(Nc1ccc(SC(F)(F)F)cc1)Oc1ccc(Cl)cc1 (centres undefined) | inactive: 9.74%
Cc1cccc(C)c1OP(C)(=O)Nc1ccc(SC(F)(F)F)cc1 (centres undefined) | inactive: -19.3%
CP(=O)(Oc1ccccc1)OC(c1ccccc1)C(F)(F)F (centres undefined) | inactive: -2.09%
CP(=O)(Nc1ccccc1Br)Oc1ccccc1 (centres undefined) | inactive: -2.15%
COc1ccccc1OP(C)(=O)Nc1ccccc1 (centres undefined) | inactive: -0.432%
CP(=S)(Nn1cnnc1)Oc1ccccc1 (centres undefined) | inactive: -15.3%
Cc1cc(C)cc(OP(C)(N)=O)c1 (centres undefined) | inactive: 16.7%
COc1ccccc1OP(C)(=O)Nc1cc(Cl)ccc1C (centres undefined) | inactive: -0.687%
COc1ccc(OP(C)(=O)Nc2cccc(F)c2)cc1 (centres undefined) | inactive: 3.48%
COc1ccccc1OP(C)(=O)Nc1ccc(C)cc1 (centres undefined) | inactive: -1.11%
Cc1ccc(NP(C)(=O)Oc2ccccc2)c(C)c1 (centres undefined) | inactive: 2.68%
CCOC(=O)c1ccc(NP(C)(=O)Oc2ccccc2)cc1 (centres undefined) | inactive: 8.06%
O=[N+]([O-])c1ccc2c(c1)C=Nc1ccccc1O2 | inactive: 0.906%
CC(C)(C)c1ccc(OP(C)(=O)Nc2ccc(SC(F)(F)F)cc2)cc1 (centres undefined) | inactive: -8.8%
O=C(O)C(O)(c1ccccc1)c1ccccc1 | inactive: 14.2%
Cc1cccc(C)c1OP(C)(N)=O (centres undefined) | inactive: -12.1%
O=C(O)C1(O)c2ccccc2-c2ccccc21 | inactive: -7.29%
O=[N+]([O-])[O-].[NH4+] | inactive: 10.2%
CCN(CC)CCCOC(=O)C(O)(c1ccccc1)c1ccccc1 | inactive: 7.12%
COc1ccccc1OP(C)(=O)Nc1ccc(C)cc1C (centres undefined) | inactive: -12.6%
CCc1ccc(OP(C)(=O)O)cc1 | inactive: 1.96%
O=[N+]([O-])c1cc([N+](=O)[O-])c(Nc2ccccn2)c([N+](=O)[O-])c1 | inactive: -0.0912%
Cc1c(NP(C)(=O)Oc2ccc(C(C)C)cc2)c(=O)n(-c2ccccc2)n1C (centres undefined) | inactive: -3.42%
COc1ccc(OP(C)(=O)Nc2ccccn2)cc1 (centres undefined) | inactive: 4.57%

SMILES | activity change, negative = inhibition
CN(C)CCOC(=O)C(O)(c1ccccc1)C1CCCC1 (centres undefined) | inactive: -2.15%
COc1ccccc1OP(C)(=O)Nc1ccc(Br)cc1 (centres undefined) | inactive: -0.28%
CP(=O)(OCCOc1ccccc1)OCCOc1ccccc1 | inactive: 2.03%
CP(=O)(Nc1ccc(Cl)cc1Cl)Oc1ccccc1 (centres undefined) | inactive: -0.445%
Cc1nc2ccc3ccccc3c2o1.O=[N+]([O-])c1cc([N+](=O)[O-])c(O)c([N+](=O)[O-])c1 | inactive: -7.13%
COc1ccccc1OP(C)(=O)Nc1ccc(C)c(C)c1 (centres undefined) | inactive: -2.91%
COc1ccc(OP(C)(=O)Nc2ccccc2Br)cc1 (centres undefined) | inactive: -4.72%
Cc1cc(C)cc(OP(C)(=O)Nc2cccc(C(F)(F)F)c2)c1 (centres undefined) | inactive: 3.79%
C/C1=C2N=C(/C=C3N=C(/C(C)=C4\[N-][C@@](C)([C@H]5N=C1[C@@](C)(CCC(=O)NC[C@H](C)OP(=O)([O-])O[C@@H]1[C@H](O)[C@H](n6cnc7cc(C)c(C)cc76)O[C@@H]1CO)[C@@H]5CC(N)=O)[C@](C)(CC(N)=O)[C@H]4CCC(N)=O)[C@@](C)(CC(N)=O)[C@@H]\3CCC(N)=O)C(C)(C)[C@@H]/2CCC(N)=O.[C-]#N.[Co+3] | inactive: 1.14% [at 29.1 µM]
CCOC(=O)c1ccc(NP(C)(=O)Oc2ccc(Cl)cc2)cc1 (centres undefined) | inactive: 3.67%
CP(=O)(OC12CC3CC(CC(C3)C1)C2)OC12CC3CC(CC(C3)C1)C2 | inactive: -1.05%
CN(C)C(=O)c1c([N+](=O)[O-])cc([N+](=O)[O-])cc1[N+](=O)[O-] | inactive: 6.09%
CC(C)(C)c1ccc(OP(C)(=O)O)cc1 | inactive: -1.76%
COc1ccccc1OP(C)(=O)Nc1ccccc1Br (centres undefined) | inactive: -3.31%
CP(=O)(Nc1ccc(Cl)cc1)Oc1ccc(F)cc1 (centres undefined) | inactive: 5.8%
COc1ccccc1OP(C)(=O)Nc1c(C)n(C)n(-c2ccccc2)c1=O (centres undefined) | inactive: -3.64%
O=C(OCCCN1CCCC1)C(O)(c1ccccc1)C1CCCCC1 (centres undefined) | inactive: -28.8%
OCCSCCO | inactive: -4.2%
CP(=O)(Oc1ccccc1)N1CCOC1=O (centres undefined) | inactive: -1.76%
CCc1ccc(OP(C)(=O)Nc2cccnc2)cc1 (centres undefined) | inactive: -1.87%
CCN(CC)CC(O)COC(=O)C(O)(c1ccccc1)C1CCCCC1 (centres undefined) | inactive: -6.88%
COc1ccc(OP(C)(=O)Nc2ccc(Br)cc2)cc1 (centres undefined) | inactive: 6.43%
CCN(CCCl)Cc1ccccc1C | inactive: 10.8%
Cc1ccccc1NP(C)(=O)Nc1ccccc1C | inactive: -4.87%

SMILES | activity change, negative = inhibition
[NH4+].[O-][Cl+3]([O-])([O-])[O-] | inactive: 7.43%
CP(=O)(Nc1ccc2c(c1)OCCO2)Oc1ccccc1 (centres undefined) | inactive: -8.12%
CCOP(C)(=S)SCC(=O)NC(C)(CC)C(=O)O (centres undefined) | inactive: -6.45%
CCOP(=O)(CC)OCC | inactive: 0.284%
CP(=O)(Nc1ccc(SC(F)(F)F)cc1)Oc1ccc(F)cc1 (centres undefined) | inactive: 1.22%
O=[N+]([O-])c1ccc(OP2(=O)COCCO2)cc1 (centres undefined) | inactive: 11%
Cc1c([N+](=O)[O-])cccc1[N+](=O)[O-] | inactive: 2.31%
Cc1ccc([N+](=O)[O-])c([N+](=O)[O-])c1 | inactive: -0.219%
Cc1cc(-c2cccc3ccccc23)c(C)cn1.O=[N+]([O-])c1cc([N+](=O)[O-])c(O)c([N+](=O)[O-])c1 | inactive: -0.0451%
CN(C)CCOC(=O)C(O)(c1ccccc1)C1CCCCC1 (centres undefined) | inactive: -7.48%
COc1ccc(NP(C)(=O)Oc2ccccc2OC)cc1 (centres undefined) | inactive: 0.0488%
COc1ccc(OP(C)(=O)Nc2cccc(Br)c2)cc1 (centres undefined) | inactive: -1.94%
CP(=O)(Nc1ccccc1)Oc1ccc(F)cc1 (centres undefined) | inactive: 0.381%
CCCCCOc1ccc(NP(C)(=O)Oc2ccc(Cl)cc2Cl)cc1 (centres undefined) | inactive: 6.79%
CCN(CC)CCCOC(=O)C(O)(c1ccccc1)C1CCCCC1 (centres undefined) | inactive: -5.37%
CCOC(=O)c1ccc(NP(C)(=O)Oc2ccc(F)cc2)cc1 (centres undefined) | inactive: -2.09%
COc1ccc(OP(C)(=O)Nc2ccc(SC(F)(F)F)cc2)cc1 (centres undefined) | inactive: -1.81%
CCC(C)(OO)OOC(C)(CC)OO (centres undefined) | inactive: 7.63%
Cc1cccc([N+](=O)[O-])c1[N+](=O)[O-] | inactive: 1.5%
O=C(OCCN1CCN(CCOCc2ccccc2)CC1)C(O)(c1ccccc1)c1ccccc1 | inactive: 1.58%
CP(=O)(Nc1ccccc1F)Oc1ccccc1 (centres undefined) | inactive: -2.93%
CC(C)c1ccc(OP(C)(=O)Nc2ccc(SC(F)(F)F)cc2)cc1 (centres undefined) | inactive: 2.13%
